GALK inhibitor = blocks human galactokinase activity. 270,000 compounds, 0.007% hits. Purified GALK, Kinase-Glo residual ATP luminescence. P51570. Potency, µM (top dose mostly 57.5 µM), for the others: at the highest dose activity change, negative = inhibition, most hits filed as inhibitors. AID 1868; further: potency means the concentration at half of the fitted maximal effect; on the % scale 0 is the no-effect control and ±100 the full control effect
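Compounds were pin-transferred into ATP buffer (35 uM final), then GALK plus galactose (5 nM, 100 uM final) was added. After 1 h at room temperature, Kinase-Glo Plus was added and luminescence read after 10 min.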
miR-21 reporter = raises the signal of a miR-21 reporter; HeLa miR-21 FLuc reporter, luciferase, 48 h; Potency, µM (highest dose often 38.3 µM), for inactives: at the highest dose reporter change, positive = more light; 340,000 tested, under 10 active; active = well fitted rising curve with a large enough effect; inconclusive = small, poorly fitted or top-dose-only effect; inactive = no such curve, though single readings can be large or run the other way;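 also: % of control where 0% means no effect; miR-21 action dims this reporter so a rising signal means less miR-21 action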
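HeLa cells stably expressing CMV-driven firefly luciferase with a downstream miR-21 binding sequence, endogenously expressing miR-21, were treated with titrations (up to about 40uM final) for 48 hours at 37 degree Celsius. Luciferase luminescence was read after lysis.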
TrxR1 substrate = rat thioredoxin reductase 1 substrate activity. Potency, µM (top dose mostly 114 µM), for inactives: top-dose activity change, negative = substrate turnover. 390,000 compounds, 0.01% hits. O89049. AID 588456. purified TrxR1 substrate turnover, NADPH consumption readout; further: potency means the concentration at half of the fitted maximal effect; on the % scale 0 is the no-effect control and ±100 the full control effect; nearly all actives have a fitted effect of over 50% in size
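Rat TrxR1, dispensed at 90 nM, was prereduced with 400 uM NADPH (final) for 5 min at ~22 deg C, then incubated with compound 15 min before 400 uM selenite. A first-read NADPH fluorescence drop versus no-compound background flagged substrates.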
rTrxR1 inhibitor = blocks rat thioredoxin reductase 1. 390,000 compounds, 1% hits. AID 588453. Potency, µM (titrated, usually from 114 µM), for inactives: at the highest dose activity change, negative = inhibition, hits mostly inhibitors. recombinant rTrxR1, NADPH fluorescence consumption, selenite substrate; further: potency means the concentration at half of the fitted maximal effect; on the % scale 0 is the no-effect control and ±100 the full control effect; nearly all actives have a fitted effect of over 65% in size
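Rat TrxR1 (90 nM in the dispensed reagent) was pre-reduced with 400 uM NADPH for 5 min at room temperature, then incubated with compound for 15 min. After 400 uM selenite was added, NADPH fluorescence (Ex 340/Em 450 nm) was followed for 8 min.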
PINK1 modulator = PINK1 expression modulation; PINK1 immunofluorescence, high-content cytometry, 24 h; Potency, µM (series often up to 76.6 µM), inactives show at the top dose activation (PINK1 increase), most hits filed as activators; 410,000 compounds, 0.2% hits; AID 624263; active means well fitted activation curve with a large enough effect; inconclusive means small, poorly fitted or top-dose-only effect; cell line not stated here; further: potency means the concentration at half of the fitted maximal effect; % of control where 0% means no effect; nearly all actives have a fitted effect of over 65% in size
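Readout is PINK1 immunofluorescence, quantified alongside mitochondrial, cell and nuclear markers by laser-scanning microplate cytometry. Cells from a stable line were exposed to compound titrations (5 concentrations) for 24 hours, with CCCP controls.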
An asterisk follows results filed as active; ? = inconclusive; / = no result; [ ] = dose if it differs, or a comment. Hits are enriched below; roughly 1.1% of the tested compounds scored in any of these assays. Unless noted, the call rests on the fitted dose curve; in most records, active means well fitted curve in the direction sought with a large enough effect; inconclusive means small, poorly fitted or top-dose-only effect, or another doubt; inactive means no such curve, though single readings can be large; an effect the other way counts as inactive or inconclusive.

| nr | Molecule | GALK inhibitor | miR-21 reporter | TrxR1 substrate |
| --- | --- | --- | --- | --- |
| 1 | O=c1[nH]c(=S)[nH]c(O)c1/C=C1/C=c2ccccc2=N1 | -20% | 6% | -3% |
| 2 | Cc1ccc(/C=C2\C(=O)NC(=O)N(CC3CCCO3)C2=O)s1 (stereo not given) | 0% | -11% | -9% |
| 3 | NCC(=O)c1ccc2ccccc2c1 | / | / | 48% |
| 4 | O=C1NC(=O)N(Cc2ccco2)C(=O)/C1=C\c1cccn1CCOc1ccc(Cl)cc1 | -14% | -18% | 2% |
| 5 | Cc1cccc(OCCn2cccc2/C=C2/C(=O)NC(=O)N(Cc3ccco3)C2=O)c1 | 1% | -18% | -4% |
| 6 | CCc1ccc(N2C(=O)NC(=O)/C(=C/c3cccn3CCOc3ccc(C)cc3)C2=O)cc1 | -7% | -5% | -5% |
| 7 | CCOc1cc2[nH]c(=O)n(CCCC(=O)N3CCN(c4cccc(Cl)c4)CC3)c(=O)c2cc1OCC | / | ? | 2%[57.1 µM] |
| 8 | CN1C(=O)C(=Cc2cccnc2)C(=O)N(C)C1=O | 6% | 1% | 7% |

| nr | rTrxR1 inhibitor | PINK1 modulator |
| --- | --- | --- |
| 1 | 20µM* | 3% |
| 2 | 40µM* | 3% |
| 3 | 18%[0.0914 µM] | 0% |
| 4 | 22µM* | -3% |
| 5 | 35µM* | 3% |
| 6 | -20% | ? |
| 7 | 11%[57.1 µM] | 1% |
| 8 | 22µM* | -1% |

Overlap with the part before: five entries, then new ones.
| nr | Molecule | GALK inhibitor | miR-21 reporter | TrxR1 substrate |
| --- | --- | --- | --- | --- |
| 4 | O=C1NC(=O)N(Cc2ccco2)C(=O)/C1=C\c1cccn1CCOc1ccc(Cl)cc1 | -14% | -18% | 2% |
| 5 | Cc1cccc(OCCn2cccc2/C=C2/C(=O)NC(=O)N(Cc3ccco3)C2=O)c1 | 1% | -18% | -4% |
| 6 | CCc1ccc(N2C(=O)NC(=O)/C(=C/c3cccn3CCOc3ccc(C)cc3)C2=O)cc1 | -7% | -5% | -5% |
| 7 | CCOc1cc2[nH]c(=O)n(CCCC(=O)N3CCN(c4cccc(Cl)c4)CC3)c(=O)c2cc1OCC | / | ? | 2%[57.1 µM] |
| 8 | CN1C(=O)C(=Cc2cccnc2)C(=O)N(C)C1=O | 6% | 1% | 7% |
| 9 | c1ccc(CCN2CCCCC2)cc1 | / | / | 9% |
| 10 | C#CCOS(=O)OC1CCCCC1Oc1ccc(C(C)(C)C)cc1 (stereo not given) | / | / | / |
| 11 | O=C1NC(=S)NC(=O)C1Cc1ccccc1 | / | / | 10%[57.1 µM] |
| 12 | O=C1NC(=S)NC(=O)C1C/C=C/c1ccccc1 | -3% | -1% | -6% |
| 13 | CCC(C)C(=O)c1c(O)c(C)c2oc3c(C)c(O)c(C(=O)C(C)CC)c(O)c3c2c1O (stereo not given) | / | / | / |
| 14 | O=C(CNC(=O)c1cccc(S(=O)(=O)N2CCc3ccccc32)c1)Nc1ccccc1Br | / | / | -11% |
| 15 | COC(/C(C)=C/C=C/C(C)=C/c1coc(C)n1)C(C)C1CC(O)C2(C)OC2C=CC(C)C2CC(CC(=O)O2)CC2OC2C(=O)O1 (stereo not given) | / | / | 1% |
| 16 | Cc1ccc(Cl)cc1N1CCN(C(=O)c2cn(CC(C)C)c(=O)c3c2c2ccccc2n3C)CC1 | / | -2% | 31% |

| nr | rTrxR1 inhibitor | PINK1 modulator |
| --- | --- | --- |
| 4 | 22µM* | -3% |
| 5 | 35µM* | 3% |
| 6 | -20% | ? |
| 7 | 11%[57.1 µM] | 1% |
| 8 | 22µM* | -1% |
| 9 | 12% | / |
| 10 | / | -1% |
| 11 | 12%[11.4 µM] | -4% |
| 12 | 50µM* | 4%[38.3 µM] |
| 13 | / | 16µM* |
| 14 | ? | 0% |
| 15 | 10µM* | 9% |
| 16 | 38% | 2% |

Next section:
| nr | Molecule | GALK inhibitor | miR-21 reporter | TrxR1 substrate |
| --- | --- | --- | --- | --- |
| 17 | Cc1ccc(-c2c(C)n3c4c(=O)n(C)c(=O)n(C)c4nc3n2CCO)cc1 | / | ? | 1%[57.1 µM] |
| 18 | COc1ccc(C(=O)O)cc1OC | / | / | 4% |
| 19 | O=C(O)c1cc[c]([Hg][Cl])cc1 | / | / | 12%[57.1 µM] |
| 20 | CCOC(=O)c1cc(CC)sc1/N=C/C1C(=O)NC(=S)NC1=O | 9% | -7% | -1% |
| 21 | CCOC(=O)c1c(-n2c(C)cc(/C=C3/C(=O)NC(=O)N(CC)C3=O)c2C)sc2c1CCCC2 | / | / | -11% |
| 22 | CCOC(=O)c1c(-n2c(C)cc(C=C3C(=O)NC(=S)NC3=O)c2C)sc2c1CCCC2 | -8% | -1% | -13% |
| 23 | Cc1ccc(C(=O)c2cn(CC(=O)Nc3ccc(C(C)C)cc3)c3nc(C)ccc3c2=O)cc1 | / | -1% | 2% |
| 24 | COC(=O)Cn1cc(/C=C2\C(=O)NC(=O)N(c3ccc(OC)cc3)C2=O)c2ccccc21 | 2% | 0% | 27%[57.1 µM] |

| nr | rTrxR1 inhibitor | PINK1 modulator |
| --- | --- | --- |
| 17 | 6%[57.1 µM] | -1% |
| 18 | 10% | 1% |
| 19 | 0.35µM* | 4% |
| 20 | 8.9µM* | 0% |
| 21 | -9%[57.1 µM] | -2% |
| 22 | 22µM* | -4% |
| 23 | 31% | -1% |
| 24 | -16%[57.1 µM] | 35µM* |

Other results follow.
| nr | Molecule | GALK inhibitor | miR-21 reporter | TrxR1 substrate |
| --- | --- | --- | --- | --- |
| 25 | NC1C=CC=C(C(=O)O)C1 (stereo not given) | / | / | 6%[57.1 µM] |
| 26 | CCCc1[nH][nH]c(=O)c1C(c1ccc(Cl)cc1)C(C#N)C#N (stereo not given) | -5% | -8% | 6% |
| 27 | CCCc1[nH][nH]c(=O)c1C(c1ccccc1)C(C#N)C#N (stereo not given) | -3% | -7% | 6%[57.1 µM] |
| 28 | Cc1ccc(NC(=O)CN2C(=O)CN=C(c3ccccc3)c3ccccc32)c(C)c1 | / | 3% | -9% |
| 29 | CCn1nc(/C=C/c2ccccc2)nc2c(=O)n(C)c(=O)nc1-2 | 5% | -17% | 16µM* |
| 30 | CCn1nc(-c2cccs2)nc2c(=O)n(C)c(=O)nc1-2 | 1.3µM* | 0% | 45µM* |
| 31 | CCOc1ccc(-n2c(/C=C/c3ccccc3)nc3ccccc3c2=O)cc1 | / | -3% | -5%[57.1 µM] |
| 32 | Cc1ccc(Cn2cccc(C(=O)Nc3ccc(C)c(Cl)c3)c2=O)cc1 | / | 6% | 3%[57.1 µM] |

| nr | rTrxR1 inhibitor | PINK1 modulator |
| --- | --- | --- |
| 25 | 23%[57.1 µM] | 1% |
| 26 | 3.2µM* | -1%[38.3 µM] |
| 27 | ? | -2% |
| 28 | -18% | 1% |
| 29 | ? | -2% |
| 30 | ? | -2% |
| 31 | -3%[57.1 µM] | 0% |
| 32 | 18%[57.1 µM] | 0% |

More records follow.
| nr | Molecule | GALK inhibitor | miR-21 reporter | TrxR1 substrate |
| --- | --- | --- | --- | --- |
| 33 | O=C(Oc1ccc([N+](=O)[O-])cc1)N1CCN(/[N+]([O-])=N/Oc2ccc([N+](=O)[O-])cc2[N+](=O)[O-])CC1 | / | / | 6% |
| 34 | CCOC(=O)N1CC(C)N(/[N+]([O-])=N/Oc2ccc([N+](=O)[O-])cc2[N+](=O)[O-])CC1C (stereo not given) | / | / | -6% |
| 35 | c1ccc(CN2CCCC3(CCNCC3)C2)cc1 | / | / | / |
| 36 | Cc1ccc(NC(=O)COC(=O)/C=C/c2ccco2)cc1S(=O)(=O)N(C)C | -1% | -2% | -3% |
| 37 | Cc1cccc(NC(=O)CSc2ccc(-c3ccco3)nn2)c1 | 1% | -8% | -8% |
| 38 | COc1cc(C(=O)NCCSc2c(-c3ccccc3)[nH]c3ccccc23)cc(OC)c1OC | / | ? | 13% |
| 39 | C[N+](C)(C)CC#CCOC(=O)Nc1cccc(Cl)c1 | / | / | 13%[57.1 µM] |
| 40 | Cn1nnc2cc(NC(=O)Nc3cccc(Cl)c3)ccc21 | 5% | -65% | 14% |

| nr | rTrxR1 inhibitor | PINK1 modulator |
| --- | --- | --- |
| 33 | ? | -1% |
| 34 | 11µM* | / |
| 35 | / | 0% |
| 36 | 40µM* | 4% |
| 37 | ? | 3% |
| 38 | 20% | 1% |
| 39 | 2.7µM* | 0% |
| 40 | 7% | 6% |

Further compounds
| nr | Molecule | GALK inhibitor | miR-21 reporter | TrxR1 substrate |
| --- | --- | --- | --- | --- |
| 41 | Cc1ccc(NC(=O)Nc2cc3c(cc2N2CCCCC2)n(C)c(=O)n3C)cc1Cl | / | ? | 1% |
| 42 | Cc1cc(/C=C2/C(=O)NC(=O)N(Cc3ccco3)C2=O)c(C)n1-c1ccccc1 | 1% | -12% | -21%[57.1 µM] |
| 43 | C=CCN1C(=O)NC(=O)/C(=C\c2ccc(-c3ccccc3[N+](=O)[O-])o2)C1=O | -2% | 23% | 19%[57.1 µM] |
| 44 | CCN(CC)c1ccc(/C=C2/C(=O)NC(=O)N(Cc3ccco3)C2=O)cc1 | 0% | 1% | -7% |
| 45 | CN(C)c1ccc(/C=C2/C(=O)NC(=O)N(Cc3ccco3)C2=O)cc1 | 0% | -5% | -15% |
| 46 | O=C1NC(=O)N(Cc2ccco2)C(=O)/C1=C/c1ccc(-c2cccc([N+](=O)[O-])c2)o1 | 0% | -6% | -4% |
| 47 | CCN(CC)c1ccc(/C=C2\C(=O)NC(=O)N(CC3CCCO3)C2=O)cc1 (stereo not given) | 0% | 0% | -5% |
| 48 | COc1ccc(CN2CCNCC2)cc1 | 6% | -3% | -1% |

| nr | rTrxR1 inhibitor | PINK1 modulator |
| --- | --- | --- |
| 41 | -1% | 1% |
| 42 | -43% | 2% |
| 43 | -9%[57.1 µM] | -2% |
| 44 | 35µM* | 1% |
| 45 | 50µM* | 6% |
| 46 | 40µM* | -2% |
| 47 | ? | -1% |
| 48 | 35µM* | 2% |

Screening data (PubChem BioAssay)
